# Laboratory results as given in PubChem BioAssay AID1789 (The Scripps Research Institute Molecular Screening Center, 2009).
# This is a selection; strong and weak results do not stand in their true shares. Some of these compounds have results that are not shown, active ones among them. Active and inactive are the calls of the source.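 How the source made its calls: active means inhibition above the screen-wide mean plus 3 SD, computed separately per campaign (cut at about 16% in these data); inactive means the rest.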
# System: Heat shock protein HSP 90 (rabbit reticulocyte lysate; luciferase refolding)
# Assay: inhibitors of HSP90 chaperone activity – cell lysate, luminescence, primary screen (AID 1789);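 further: 0% = DMSO wells and 100% = 60 µM geldanamycin wells; inhibitors lower the luminescence because luciferase stays unfolded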
# Conditions: 3 h, at 5.6 µM, hits give high values
row,Structure (SMILES),inhibition
1,CCN1CCCC(OC(=O)C2(O)c3ccccc3C=Cc3ccccc32)C1 (centres undefined),inactive: 0.17%
2,Cc1cc(C(=O)NCC2(N3CCCCC3)CCCCC2)ccc1[N+](=O)[O-],inactive: 4.68%
3,O=C(NCC1(N2CCCCC2)CCCCC1)c1cccc(Br)c1,inactive: -6.42%
4,COc1ccc(C(=O)NCC2(N(C)C)CCCCC2)cc1,inactive: 3.38%
5,C=CCN1CCN(CCOC(=O)C(O)(c2ccccc2)c2ccccc2)CC1,inactive: -1.87%
6,O=C(NCC1(N2CCCCC2)CCCCC1)c1cc(F)c(F)cc1Cl,inactive: -3.28%
7,Cc1ccccc1C(=O)NCC1(N2CCCCC2)CCCCC1,inactive: 3.41%
8,CN(C)c1ccc(C(=O)NCC2(N(C)C)CCCCC2)cc1,inactive: 0.14%
9,CN(C)C1CCCC1OC(=O)C(O)(c1ccccc1)c1ccccc1 (centres undefined),inactive: -1%
10,Cc1ccc(C(=O)NCC2(N3CCCCC3)CCCCC2)cc1,inactive: 4.54%
11,CC(C)N1C(=O)CC2(CCN(CCOC(=O)C(O)(c3ccccc3)c3ccccc3)CC2)C1=O,inactive: -0.2%
12,CCN(CC)CC(C)C(C)OC(=O)C(O)(c1ccccc1)c1ccccc1 (centres undefined),inactive: -1.68%
13,COc1cc(SC)ccc1C(=O)NCC1(N(C)C)CCCCC1,inactive: -1.8%
14,CN1[C@@H]2CC[C@H]1CC(OC(=O)C(O)(c1ccccc1)c1ccccc1)C2 (some centres undefined),inactive: -0.94%
15,O=C(NCC1(N2CCCCC2)CCCCC1)c1cc([N+](=O)[O-])ccc1Cl,inactive: 1.02%
16,CN(C)c1cccc(C(=O)NCC2(N(C)C)CCCCC2)c1,inactive: -2.8%
17,CC(C)Oc1ccc(C(=O)NCC2(N(C)C)CCCCC2)cc1,inactive: 3.29%
18,COc1ccc(Br)c(C(=O)NCC2(N3CCCCC3)CCCCC2)c1,inactive: 1.01%
19,O=C(OC1CN2CCC1CC2)C(CO)(c1ccccc1)c1ccccc1 (centres undefined),inactive: 2.92%
20,O=C(NCC1(N2CCCCC2)CCCCC1)c1cccc(Cl)c1,inactive: 0.97%
21,COc1cccc(C(=O)NCC2(N3CCCCC3)CCCCC2)c1,inactive: -0.52%
22,COc1ccc(Cl)cc1C(=O)NCC1(N(C)C)CCCCC1,inactive: 1.4%
23,COc1cc(C(=O)NCC2(N(C)C)CCCCC2)c([N+](=O)[O-])cc1OC,inactive: 1.87%
24,CN(C)C1(CNC(=O)c2ccc(Br)cc2)CCCCC1,inactive: 1.92%
